ChEMBL document CHEMBL1125216, “Potent, orally active imidazo[4,5-b]pyridine-based angiotensin II receptor antagonists” (J Med Chem, 1991)

Molecular target: Type-1 angiotensin II receptor (Rattus norvegicus) (UniProt P25095)
Test: The compound was tested for inhibition of angiotensin II receptor induced pressor response in rat after intravenous administration.

- ED50: 0.048 mg/kg
SMILES: CCc1nc2c(C)cc(C)nc2n1Cc1ccc(-c2ccccc2-c2nn[nH]n2)cc1 [L-158809]
